The full list was thinned out, with hits kept by preference.
GIV Gai3 FP – inhibitors of GIV GBA-motif binding to rat Galpha-i3; percent of control (FP), % (concentration not given with the values); AID 1224905; Galpha-i3/FITC-GIV peptide fluorescence polarization, 90 min; stronger effect = lower value; scaled: aluminum fluoride 0%, vehicle 100%; 210,000 compounds, 0.42% hits; P08753;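 active means replicate mean at 85% of control or lower, very high polarization wells dropped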;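 further: wells of about 15 µL received 100 nL stock; the first replicate is given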
HCMV NEC inh – cytomegalovirus nuclear egress complex inhibition | inhibition, % (no concentration beside the values) | HTRF UL50-UL53 interaction, normalized percent inhibition | hit rate 0.15% among 190,000; in the data active = inhibition above about 27%, passing the limit was not always enough
Numbers without * were called inactive; / = no result given.

no. | SMILES | GIV Gai3 FP | HCMV NEC inh
1 | Nc1nnnn1N=Cc1ccc(-c2ccc3c(c2)COC3=O)o1 | 36* | /
2 | O=c1c2ccc(Cl)cc2nc(SCc2nnc(-c3cccs3)o2)n1Cc1ccco1 | / | -24
3 | O=C(CSc1n[nH]c(=O)n1-c1cccnc1)c1cc(-c2ccccc2)no1 | 108 | -35
4 | Cc1cc(C)n(C)c(=O)c1C(=O)O | 103 | /
5 | Cc1cc(=O)[nH]c(O)c1C(=O)O | 93 | 65*
6 | CN(C)CCc1c[nH]c2ccc(C[C@H]3COC(=O)N3)cc12 | / | -24
7 | COc1ccc(Cl)cc1NC(=O)c1cn(C2CCCCC2)c(=O)c2c1c1ccccc1n2C | 104 | 14
8 | CCOc1ccccc1NC(=O)c1cn(C2CCCCC2)c(=O)c2c1c1ccccc1n2C | 100 | 54*

Copied from the list:
O=C(CSc1n[nH]c(=O)n1-c1cccnc1)c1cc(-c2ccccc2)no1 in GIV Gai3 FP: 108
CCOc1ccccc1NC(=O)c1cn(C2CCCCC2)c(=O)c2c1c1ccccc1n2C in HCMV NEC inh: 54*

(continued)
no. | SMILES | GIV Gai3 FP | HCMV NEC inh
9 | CCOC(=O)c1c(C)sc(-c2c(-c3cccc(Cl)c3)[nH]c3c2c(=O)n(C)c(=O)n3C)c1O | -63* | -25
10 | CCOC(=O)c1c(C)sc(-c2c(-c3cc(C)ccc3C)[nH]c3c2c(=O)n(C)c(=O)n3C)c1O | 195 | 15
11 | CCN(CC)C(=O)c1ccccc1OC | 109 | 2
12 | CCN(C(=O)c1cc2c(s1)-c1ccccc1SC2)c1ccccc1 | 104 | /
13 | O=C(CSc1ncnc2c1oc1ccccc12)NC1CCCCC1 | / | 62*
14 | O=C(CSc1ncnc2c1oc1ccccc12)NCc1ccccc1 | / | 6
15 | Cc1ccc(-n2nc3c(c2NC(=O)c2c(-c4ccccc4Cl)noc2C)CS(=O)(=O)C3)c(C)c1 | 112 | /
16 | CCOC(=O)c1sc(NC(=O)C2c3ccccc3Oc3ccccc32)c(C#N)c1C | 106 | 2
17 | CCOC(=O)c1sc(N/C=C(\C#N)c2nc3cc(Cl)ccc3o2)c(C#N)c1C | -7.6* | -6
18 | CN1c2cc(Cl)ccc2-c2nc(SCC(=O)NC3CCCCC3)ncc2S1(=O)=O | 106 | 67*
19 | CN1c2ccc(Cl)cc2-c2nc(SCC(=O)NC3CCCCC3)ncc2S1(=O)=O | 106 | -17
20 | O=c1oc2ccccc2nc1/C=C(\O)c1ccccc1 | 46* | 4
21 | CC(C)(C)/C(O)=C/c1nc2ccccc2oc1=O | 103 | /
22 | O=c1oc2ccc(Cl)cc2nc1/C=C(\O)c1ccco1 | 2.2* | -7
23 | Cc1nc(C)c(/C(O)=C/c2nc3cc(Cl)ccc3oc2=O)o1 | 111 | /
24 | COc1ccc(-c2nc(C#N)c(N3CC(C)CC(C)C3)o2)cc1 (centres undefined) | 100 | -5
25 | CCOc1ccc(CN(C)C(=O)c2cn3ccccc3n2)cc1 | / | -38
26 | CCCC(C)C(=O)NCc1ccccc1OC (centres undefined) | / | -14
27 | Cc1cccc(NC(=O)CSc2nc(-c3ccccc3)cn2-c2ccccc2)c1C | 103 | /
28 | O=c1[nH]c2cc([N+](=O)[O-])c([N+](=O)[O-])cc2[nH]c1=O | 104 | -97
29 | Cc1cccc(-c2nn3c(=O)cc(N4CCN(S(=O)(=O)c5ccccc5C)CC4)nc3s2)c1 | 105 | -5
30 | CC(C)c1ccc(S(=O)(=O)N2CCN(c3cc(=O)n4nc(-c5ccccc5)sc4n3)CC2)cc1 | 101 | 43*
31 | Cc1ccccc1-c1nn2c(=O)cc(N3CCN(S(=O)(=O)Cc4ccccc4)CC3)nc2s1 | 101 | -9
32 | CCOc1ccc(S(=O)(=O)N2CCN(c3cc(=O)n4nc(-c5ccccc5)sc4n3)CC2)cc1 | 101 | 45*
33 | Cc1ccc(C(=O)[C@@H]2[C@@H](c3ccc(F)cc3)C(C#N)(C#N)[C@H]3C=Cc4ccccc4N23)cc1 | 110 | /
34 | COc1cc(Br)c(/C=C2\C(=O)N(c3ccc(Cl)c(C(=O)O)c3)N=C2C)cc1OC | 112 | /
35 | COc1cc(/C=C2\C(=O)N(c3ccc(S(N)(=O)=O)cc3)N=C2C)cc(Cl)c1OCc1ccccc1 | 96 | 61*
36 | CCOc1c(OC)cc(/C=C2/C(=O)N(c3ccc(S(N)(=O)=O)cc3)N=C2C)cc1[N+](=O)[O-] | 95 | -10
37 | COc1cc(/C=C2\C(=O)N(c3ccc(Cl)c(C(=O)O)c3)N=C2C)cc(OC)c1OC | 99 | 63*
38 | N=C1/C(=C\c2cn(CCOc3ccccc3Cl)c3ccccc23)C(=O)N=C2SC=NN12 | 11* | 0
39 | Cc1ccc(C)c(OCCn2cc(/C=C3\C(=N)N4N=C(S(C)(=O)=O)SC4=NC3=O)c3ccccc32)c1 | 100 | -19
40 | COc1cc(CN2CC(=O)N(CC3CCOCC3)CC(OCc3ccccn3)C2)cc2c1OCO2 (centres undefined) | / | -3

Ordered by value in GIV Gai3 FP (rising): five of the compounds above
entry	molecule	GIV Gai3 FP
35	COc1cc(/C=C2\C(=O)N(c3ccc(S(N)(=O)=O)cc3)N=C2C)cc(Cl)c1OCc1ccccc1	96
37	COc1cc(/C=C2\C(=O)N(c3ccc(Cl)c(C(=O)O)c3)N=C2C)cc(OC)c1OC	99
39	Cc1ccc(C)c(OCCn2cc(/C=C3\C(=N)N4N=C(S(C)(=O)=O)SC4=NC3=O)c3ccccc32)c1	100
33	Cc1ccc(C(=O)[C@@H]2[C@@H](c3ccc(F)cc3)C(C#N)(C#N)[C@H]3C=Cc4ccccc4N23)cc1	110
34	COc1cc(Br)c(/C=C2\C(=O)N(c3ccc(Cl)c(C(=O)O)c3)N=C2C)cc1OC	112

Remaining list, next part.
no. | SMILES | GIV Gai3 FP | HCMV NEC inh
41 | CO/C=C1\SC(=S)N(CCc2ccccc2)C1=O | 154 | -52
42 | O=C1/C(=C/c2ccc(O)cc2)SC(=S)N1CCc1ccccc1 | -5.9* | /
43 | CCCC(=O)Nc1ccc(SCc2cc(=O)n3c(ncn3C(C)C)n2)cc1 | 99 | -19
44 | CN1C(=O)/C(=C\C=C\c2ccc(N(C)C)cc2)SC1=S | 126 | /
45 | C#CCN1C(=O)S/C(=C/C=C/c2ccc(N(C)C)cc2)C1=O | -61* | -24
46 | COCCNC(=O)Cn1c(-c2cccs2)cc2cc(Cl)ccc21 | 111 | /
47 | Cc1ccccc1-n1nnnc1Sc1nnnn1-c1ccccc1 | / | 40*
48 | Cc1cccc(-n2c(Sc3nnnn3-c3ccccc3)nc3ccccc3c2=O)c1C | / | -16
49 | Cc1nn(Cc2nnc(-c3ccccc3Cl)o2)c(C)c1Br | 107 | 0
50 | COc1ccc(S(N)(=O)=O)cc1-c1nnc2c3ccccc3c(C)nn12 | 110 | /
51 | COc1ccc(S(=O)(=O)N2CCOCC2)cc1-c1nnc2c3ccccc3c(C)nn12 | 106 | 54*
52 | Cc1onc(C(=O)NN)c1-c1csc(-c2ccccc2)n1 | 99 | -47
53 | Nc1c(C(=O)c2cccs2)oc2nc(-c3cccs3)cc(-c3ccco3)c12 | -54* | -31
54 | N#Cc1c(-c2ccco2)cc(-c2cccs2)nc1N | 114 | 45
55 | COc1cccc(-c2cc(C(=O)Nc3ccc(S(=O)(=O)Nc4nccc(C)n4)cc3)c3ccccc3n2)c1 | 103 | -19
56 | O=C(/C=C/c1ccco1)Nc1ccc(S(=O)(=O)N2CCCCCC2)cc1 | / | -2

One compound at a time (already shown). Order of values: GIV Gai3 FP, HCMV NEC inh
Cc1onc(C(=O)NN)c1-c1csc(-c2ccccc2)n1 as listed: 99, -47
COc1ccc(S(N)(=O)=O)cc1-c1nnc2c3ccccc3c(C)nn12 as listed: 110, /

(continued)
no. | SMILES | GIV Gai3 FP | HCMV NEC inh
57 | N#CC1=C(N)C(C#N)(C#N)C(c2ccco2)C2CN(Cc3ccccc3)CC=C12 (centres undefined) | -43* | -38
58 | N#CC1=C(N)C(C#N)(C#N)C(c2ccccc2Cl)C2CN(Cc3ccccc3)CC=C12 (centres undefined) | 188 | /
59 | CCCS(=O)(=O)c1nc(S(=O)(=O)c2ccc(C)cc2)c(NCC(C)C)s1 | 107 | 9
60 | Cc1ccccc1OCC(=O)Nc1ccc(S(=O)(=O)Nc2ncccn2)cc1 | 110 | -3
61 | Cc1c(-c2ccnc(N)n2)cnn1-c1ccccc1 | 105 | -24
62 | Nc1nc2c(s1)CCc1c-2cnn1-c1ccccc1 | / | 63*
63 | O=C1C=C(C(F)(F)F)c2ccc(NC3CCCCC3)c3cccc1c23 | -84* | /
64 | O=C1c2ccccc2C(=O)c2c(NC3CCCCC3)ccc(Nc3ccc(Oc4ccccc4)cc3)c21 | 104 | -6
65 | CCOC(=O)C1(C#N)C(=O)C(C#N)=C2CCCCC2C1c1ccccc1 (centres undefined) | -31* | -68
66 | CCOC(=O)C1=C(C)NC2=C(C(=O)CCC2)C1c1ccccc1 (centres undefined) | 100 | -28
67 | CCOc1ccc(C(=O)Nc2sc3c(c2-c2nc4ccccc4s2)CCN(CC)C3)cc1 | -3.2* | /
68 | CC(C)Oc1ccc(C(=O)Nc2sc3c(c2-c2nc4ccccc4s2)CCN(C)C3)cc1 | -3.2* | /
69 | CCC(=O)Nc1sc2c(c1-c1nc3ccccc3s1)CCN(C(C)=O)C2 | 104 | -28
70 | CCOC(=O)c1c(NC(=O)c2ccc(Cl)cc2)sc2c1CCN(C(C)C)C2 | 186 | /
